Data on 14 molecules can be found in ChEMBL document CHEMBL1614632, “Trend analysis of a database of intravenous pharmacokinetic parameters in humans for 670 drug compounds” (Drug Metab Dispos, 2008).

Structures are written as SMILES.

Series [1] is described as follows: clinical. The following applies: human, in vivo, iv, t1/2.
Series [2] is described as follows: clinical.
Series [3] in a line: clinical. The source holds these as a separate data set.
The nature of series [4]: clinical. The source holds these as a separate data set.
A short description of series [5]: clinical. The source holds these as a separate data set.

The half-life is the time in which the quantity being followed falls by half. High values mean slow loss, low ones fast loss. What is called MRT is a mean duration of stay, worked out from the concentration-time curve. The clearance is the rate of elimination divided by the concentration. Low values mean a low capacity for elimination, high ones a high capacity for elimination. A word on the Vd: it is a proportionality between amount in the body and measured concentration, not a real space. Read a low Vd as little distribution into tissue. As for `CN(C)c1ccc(O)c2c1C[C@H]1C[C@H]3[C@H](N(C)C)C(O)=C(C(N)=O)C(=O)[C@@]3(O)C(O)=C1C2=O` [MINOCYCLINE], in the series “clinical [1]”, the half-life is 17 h. Also, the mean residence time (MRT) in the series “clinical [2]” was determined as 22 h. Moreover, the clearance in “clinical [3]” came to 1.2 mL/min/kg. Further, in “clinical [4]”, the Vd came out at 1.6 L/kg.

Take `O=C(CCCCCCC(=O)Nc1ccccc1)NO` [VORINOSTAT]: the half-life in the series “clinical [1]” is 0.76 h. The molecule further returned a clearance in the series “clinical [3]” of 28 mL/min/kg.

`CC[C@@]1(O)C(=O)OCc2c1cc1n(c2=O)Cc2cc3c(CN(C)C)c(O)ccc3nc2-1` [TOPOTECAN] had a half-life in the series “clinical [1]” of 2.3 h. In “clinical [2]”, this molecule displayed a mean residence time MRT of 2.3 h.

In the series “clinical [2]”, `Cn1nnc2c(C(N)=O)ncn2c1=O` [TEMOZOLOMIDE] registered a mean residence time MRT of 2.3 h. Moreover, the clearance in the series “clinical [3]” came out at 3.6 mL/min/kg.

In “clinical [1]”, `N#Cc1ccc(C(c2ccc(C#N)cc2)n2cncn2)cc1` [LETROZOLE] gave a half-life of 45 h. For the same molecule, the MRT in the series “clinical [2]” stood at 59 h.

The term fraction unbound denotes free concentration divided by total concentration. A low value points to little free substance. Take `Sc1ncnc2nc[nH]c12` [MERCAPTOPURINE ANHYDROUS]: the free fraction (fraction unbound) in “clinical [5]” is 0.85. The same molecule came in with a clearance in “clinical [3]” of 15 mL/min/kg.

`Cc1cn([C@H]2C[C@H](N=[N+]=[N-])[C@@H](CO)O2)c(=O)[nH]c1=O` [ZIDOVUDINE] displayed a clearance in “clinical [3]” of 25 mL/min/kg.

On to `O=c1[nH]cc(F)c(=O)[nH]1` [FLUOROURACIL], for which the half-life in the series “clinical [1]” was 0.12 h. Also, in “clinical [2]”, the mean residence time MRT turned out to be 0.15 h.

The molecule `NC[C@H]1O[C@H](O[C@H]2[C@H](O)[C@@H](O[C@H]3O[C@H](CO)[C@@H](O)[C@H](N)[C@H]3O)[C@H](N)C[C@@H]2N)[C@H](O)[C@@H](O)[C@@H]1O` [KANAMYCIN] showed a free fraction (fraction unbound) in the series “clinical [5]” of 0.99.

Molecule `CNC(=O)c1c(I)c(NC(C)=O)c(I)c(C(=O)O)c1I` [IOTHALAMIC ACID] gave a free fraction (fraction unbound) in “clinical [5]” of 0.98.

Regarding `C[C@]12C=CC(=O)C=C1CC[C@@H]1[C@@H]2[C@@H](O)C[C@@]2(C)[C@H]1CC[C@]2(O)C(=O)CO` [PREDNISOLONE], the half-life in “clinical [1]” was 3.4 h. The MRT in the series “clinical [2]” worked out at 4.8 h. In “clinical [3]”, this molecule had a clearance of 2.9 mL/min/kg. This molecule also displayed a distribution volume (Vd) in the series “clinical [4]” of 0.86 L/kg.

As to `O=P(O)(O)C(O)(Cc1cccnc1)P(=O)(O)O` [RISEDRONIC ACID], in “clinical [1]”, the half-life is 200 h. Also, in “clinical [3]”, the clearance came to 1.5 mL/min/kg.

`CC(C)C[C@H](NC(=O)[C@H](Cc1ccccc1)NC(=O)c1cnccn1)B(O)O` [BORTEZOMIB] showed a half-life in the series “clinical [1]” of 18 h. The same molecule yielded an MRT in “clinical [2]” of 8.8 h. In “clinical [5]”, this molecule had a fraction unbound of 0.17. The clearance in “clinical [3]” turned out to be 19 mL/min/kg.

`CC(CN1c2ccccc2Sc2ccccc21)N(C)C` (stereo unspecified) [PROMETHAZINE]: the half-life in the series “clinical [1]” was 14 h. In addition, the MRT in “clinical [2]” turned out to be 17 h.
